Source: patent US12152019B2, “Arylalkyl pyrazole compounds as indoleamine 2,3-dioxygenase inhibitors” (Merck Sharp & Dohme LLC, priority 2018, dated 2024)

Protein sequences, listed by entry. Tags and fused reporters are not part of them.
UniProt P14902, whole entry: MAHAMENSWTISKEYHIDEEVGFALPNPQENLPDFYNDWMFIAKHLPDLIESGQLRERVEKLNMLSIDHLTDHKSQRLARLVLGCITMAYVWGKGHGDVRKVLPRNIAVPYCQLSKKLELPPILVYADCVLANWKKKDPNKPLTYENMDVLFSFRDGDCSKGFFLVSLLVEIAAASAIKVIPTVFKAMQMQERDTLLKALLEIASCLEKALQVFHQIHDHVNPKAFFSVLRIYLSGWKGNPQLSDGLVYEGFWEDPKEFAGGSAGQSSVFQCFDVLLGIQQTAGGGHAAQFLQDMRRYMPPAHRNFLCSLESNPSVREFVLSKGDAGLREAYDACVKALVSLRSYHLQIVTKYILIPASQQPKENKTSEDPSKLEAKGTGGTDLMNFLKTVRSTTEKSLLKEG

Target: IDO1 (Homo sapiens, UniProt P14902)
Assay: IDO1 Cellular Assay in HeLa Cells Stimulated with IFNγ
Format: cell-based
Conditions: HeLa cells stimulated with IFNγ 100 ng/mL, 300 uM L-tryptophan, about 48 hours, fluorescence readout; read-out: HeLa Cell Potency, IC50

IC50 [nM] | SMILES
0.727 | CC(=O)NC1CCN(C(=O)c2nn(CC[C@H]3CC[C@@H](Oc4ncccc4C(F)(F)F)CC3)c3c2CCC3)CC1 [Example 63, N-(1-(1-(2-((1s,4s)-4-((3-(trifluoromethyl)pyridin-2-yl)oxy)cyclohexyl)ethyl)-1,4,5,6-tetrahydrocyclopenta[c]pyrazole-3-carbonyl)piperidin-4-yl)acetamide]
0.619 | CC(=O)NC1CCN(C(=O)c2nn(CC[C@H]3CC[C@@H](Oc4cnccc4C)CC3)c3c2CCC3)CC1 [Example 64, N-(1-(1-(2-((1s,4s)-4-((4-methylpyridin-3-yl)oxy)cyclohexyl)ethyl)-1,4,5,6-tetrahydrocyclopenta[c]pyrazole-3-carbonyl)piperidin-4-yl)acetamide]
< 0.508 | CC(=O)NC1CCN(C(=O)c2nn(CC[C@H]3CC[C@@H](Oc4ccccc4C(F)(F)F)CC3)c3c2CCC3)CC1 [Example 65, N-(1-(1-(2-((1s,4s)-4-(2-(trifluoromethyl)phenoxy)cyclohexyl)ethyl)-1,4,5,6-tetrahydrocyclopenta[c]pyrazole-3-carbonyl)piperidin-4-yl)acetamide]
0.642 | CC(=O)NC1CCN(C(=O)c2nn(CC[C@H]3CC[C@@H](Oc4nccc(C)c4C#N)CC3)c3c2CCC3)CC1 [Example 66, N-(1-(1-(2-((1s,4s)-4-((3-cyano-4-methylpyridin-2-yl)oxy)cyclohexyl)ethyl)-1,4,5,6-tetrahydrocyclopenta[c]pyrazole-3-carbonyl)piperidin-4-yl)acetamide]
2.33 | CC(=O)NC1CCN(C(=O)c2nn(CC[C@H]3CC[C@@H](Oc4ccc(C)nc4C)CC3)c3c2CCC3)CC1 [Example 67, N-(1-(1-(2-((1s,4s)-4-((2,6-dimethylpyridin-3-yl)oxy)cyclohexyl)ethyl)-1,4,5,6-tetrahydrocyclopenta[c]pyrazole-3-carbonyl)piperidin-4-yl)acetamide]
1.52 | CC(=O)NC1CCN(C(=O)c2nn(CC[C@H]3CC[C@@H](Oc4cnc(C)nc4C)CC3)c3c2CCC3)CC1 [Example 68, N-(1-(1-(2-((1s,4s)-4-((2,4-dimethylpyrimidin-5-yl)oxy)cyclohexyl)ethyl)-1,4,5,6-tetrahydrocyclopenta[c]pyrazole-3-carbonyl)piperidin-4-yl)acetamide]
97.7 | CC(=O)NC1CCN(C(=O)c2nn(CC[C@H]3CC[C@@H](Oc4nnccc4C)CC3)c3c2CCC3)CC1 [Example 69, N-(1-(1-(2-((1s,4s)-4-((4-methylpyridazin-3-yl)oxy)cyclohexyl)ethyl)-1,4,5,6-tetrahydrocyclopenta[c]pyrazole-3-carbonyl)piperidin-4-yl)acetamide]
0.55 | CC(=O)NC1CCN(C(=O)c2nn(CC[C@H]3CC[C@@H](Oc4ccccc4Cl)CC3)c3c2CCC3)CC1 [Example 70, N-[1-[1-[2-[4-(2-chlorophenoxy)cyclohexyl]ethyl]-5,6-dihydro-4H-cyclopenta[c]pyrazole-3-carbonyl]-4-piperidyl]acetamide]
13.3 | CC(=O)NC1CCN(C(=O)c2nn(CC[C@H]3CC[C@@H](Oc4ncccc4C)CC3)cc2Br)CC1 [Example 71, N-(1-(4-bromo-1-(2-((1s,4s)-4-((3-methylpyridin-2-yl)oxy)cyclohexyl)ethyl)-1H-pyrazole-3-carbonyl)-piperidin-4-yl)acetamide]
15.5 | CC(=O)NC1CCN(C(=O)c2ccn(CC[C@H]3CC[C@@H](Oc4ncccc4C)CC3)n2)CC1 [Example 72, N-(1-(1-(2-((1s,4s)-4-((3-methylpyridin-2-yl)oxy)cyclohexyl)ethyl)-1H-pyrazole-3-carbonyl)piperidin-4-yl)acetamide]
14.3 | CC(=O)NC1CCN(C(=O)c2nn(CC[C@H]3CC[C@@H](Oc4ncccc4C)CC3)cc2CCC(F)(F)F)CC1 [Example 73, N-(1-(1-(2-((1s,4s)-4-((3-methylpyridin-2-yl)oxy)cyclohexyl)ethyl)-4-(3,3,3-trifluoropropyl)-1H-pyrazole-3-carbonyl)piperidin-4-yl)acetamide]
2.76 | CC(=O)NC1CCN(C(=O)c2nn(CC[C@H]3CC[C@@H](Oc4ncccc4C)CC3)cc2C2CC2)CC1 [Example 74, N-(1-(4-cyclopropyl-1-(2-((1s,4s)-4-((3-methylpyridin-2-yl)oxy)cyclohexyl)ethyl)-1H-pyrazole-3-carbonyl)piperidin-4-yl)acetamide]
203 | Cc1cccc(N2CCN(CCn3nc(C(=O)N4CCCC4)c4ccccc43)CC2)c1C [Example 75, (1-(2-(4-(2,3-dimethylphenyl)piperazin-1-yl)ethyl)-1H-indazol-3-yl)(pyrrolidin-1-yl)methanone]
2.18 | CC(=O)NC1CCN(C(=O)c2nn(C[C@@H]3C[C@@H](Oc4ccc(Cl)cn4)CCO3)c3c2CC(F)(F)CC3)CC1 [Example 76, N-(1-(1-(((2S,4S)-4-((5-chloropyridin-2-yl)oxy)tetrahydro-2H-pyran-2-yl)methyl)-5,5-difluoro-4,5,6,7-tetrahydro-1H-indazole-3-carbonyl)piperidin-4-yl)acetamide]
5 | CC(=O)NC1CCN(C(=O)c2nn(C[C@@H]3C[C@@H](Oc4ccc(Cl)cn4)CCO3)c3c2CC(F)(F)CC3)CC1 [Example 77, 6-{3-[4-(acetylamino)piperidine-1-carbonyl]-5,5-difluoro-4,5,6,7-tetrahydro-1H-indazol-1-yl}-1,5-anhydro-3-O-(5-chloropyridin-2-yl)-2,4,6-trideoxy-D-erythro-hexitol]
315 | CC(=O)NC1CCN(C(=O)c2nn(C[C@H]3C[C@H](Oc4ccc(Cl)cn4)CCO3)c3c2CC(F)(F)CC3)CC1 [Example 78, 1-{3-[4-(acetylamino)piperidine-1-carbonyl]-5,5-difluoro-4,5,6,7-tetrahydro-1H-indazol-1-yl}-2,6-anhydro-4-O-(5-chloropyridin-2-yl)-1,3,5-trideoxy-D-erythro-hexitol]
9.78 | O=C(c1nn(C[C@H]2C[C@H](Oc3ncccc3F)CCO2)c2c1[C@@H]1C[C@@H]1C2)N1CCC(O)CC1 [Example 79, 2,6-anhydro-1,3,5-trideoxy-4-O-(3-fluoropyridin-2-yl)-1-[(3bR,4aR)-3-(4-hydroxypiperidine-1-carbonyl)-3b,4,4a,5-tetrahydro-1H-cyclopropa[3,4]cyclopenta[1,2-c]pyrazol-1-yl]-D-erythro-hexitol]
12 | O=C(c1nn(C[C@H]2C[C@H](Oc3ncccc3F)CCO2)c2c1[C@@H]1C[C@@H]1C2)N1CCC(OCCO)CC1 [Example 80, 2,6-anhydro-1,3,5-trideoxy-4-O-(3-fluoropyridin-2-yl)-1-{(3bR,4aR)-3-[4-(2-hydroxyethoxy)piperidine-1-carbonyl]-3b,4,4a,5-tetrahydro-1H-cyclopropa[3,4]cyclopenta [1,2-c]pyrazol-1-yl}-D-erythro-hexitol]
1.43 | Cc1cccnc1O[C@H]1CC[C@@H](CCn2nc(C(=O)N3CCC(O)CC3)c3c2C[C@H]2C[C@@H]32)CC1 [Example 81, (4-hydroxypiperidin-1-yl)((3bR,4aR)-1-(2-((1s,4S)-4-((3-methylpyridin-2-yl)oxy)cyclohexyl)ethyl)-3b,4,4a,5-tetrahydro-1H-cyclopropa[3,4]cyclopenta[1,2-c]pyrazol-3-yl)methanone]
143 | Cc1cccnc1O[C@H]1CC[C@H](CCn2nc(C(=O)N3CC[C@H](O)[C@H](F)C3)c3c2C[C@H]2C[C@@H]32)CC1 [Example 82, [(3R,4S)-3-fluoro-4-hydroxypiperidin-1-yl] [(3bR,4aR)-1-(2-{trans-4-[(3-methylpyridin-2-yl)oxy]cyclohexyl}ethyl)-3b,4,4a,5-tetrahydro-1H-cyclopropa[3,4]cyclopenta [1,2-c]pyrazol-3-yl] methanone]
0.883 | Cc1cccnc1O[C@H]1CC[C@@H](CCn2nc(C(=O)N3CC[C@H](O)[C@H](F)C3)c3c2C[C@H]2C[C@@H]32)CC1 [Example 83, [(3R,4S)-3-fluoro-4-hydroxypiperidin-1-yl] [(3bR,4aR)-1-(2-{cis-4-[(3-methylpyridin-2-yl)oxy]cyclohexyl}ethyl)-3b,4,4a,5-tetrahydro-1H-cyclopropa[3,4]cyclopenta [1,2-c]pyrazol-3-yl] methanone]
22.6 | Cc1cccnc1O[C@H]1CC[C@@H](CCn2nc(C(=O)N3CCC(O)CC3)c3c2C[C@@H](C(F)F)CC3)CC1 [Example 84, [(6S)-6-(difluoromethyl)-1-(2-{cis-4-[(3-methylpyridin-2-yl)oxy]cyclohexyl}ethyl)-4,5,6,7-tetrahydro-1H-indazol-3-yl](4-hydroxypiperidin-1-yl)methanone]
27.3 | Cc1cccnc1O[C@H]1CC[C@@H](CCn2nc(C(=O)N3CCC(N)CC3)c3c2CCC(F)(F)C3)CC1 [Example 85, (4-aminopiperidin-1-yl)[5,5-difluoro-1-(2-{cis-4-[(3-methylpyridin-2-yl)oxy]cyclohexyl}ethyl)-4,5,6,7-tetrahydro-1H-indazol-3-yl]methanone]
26.8 | Cc1cccnc1O[C@H]1CC[C@@H](CCn2nc(C(=O)N3CCC(NC(=O)OC(C)(C)C)CC3)c3c2CCC(F)(F)C3)CC1 [Example 86, tert-butyl {1-[5,5-difluoro-1-(2-{cis-4-[(3-methylpyridin-2-yl)oxy]cyclohexyl}ethyl)-4,5,6,7-tetrahydro-1H-indazole-3-carbonyl]piperidin-4-yl}carbamate]
12 | Cc1cccnc1O[C@H]1CC[C@@H](CCn2nc(C(=O)N3CCC(O)CC3)c3c2C[C@H](C(F)F)CC3)CC1 [Example 87, [(6R)-6-(difluoromethyl)-1-(2-{cis-4-[(3-methylpyridin-2-yl)oxy]cyclohexyl}ethyl)-4,5,6,7-tetrahydro-1H-indazol-3-yl](4-hydroxypiperidin-1-yl)methanone]
4.47 | Cc1cccnc1O[C@H]1CC[C@@H](CCn2nc(C(=O)N3CCC(N)CC3)c3c2C[C@H]2C[C@@H]32)CC1 [Example 88, (4-aminopiperidin-1-yl)[(3bR,4aR)-1-(2-{cis-4-[(3-methylpyridin-2-yl)oxy]cyclohexyl}ethyl)-3b,4,4a,5-tetrahydro-1H-cyclopropa[3,4]cyclopenta[1,2-c]pyrazol-3-yl]methanone]
